{
  "sequences": {"note": "Amino acid sequences for entries named in this document (tags omitted).", "UniProt Q16620, whole entry, looked up": "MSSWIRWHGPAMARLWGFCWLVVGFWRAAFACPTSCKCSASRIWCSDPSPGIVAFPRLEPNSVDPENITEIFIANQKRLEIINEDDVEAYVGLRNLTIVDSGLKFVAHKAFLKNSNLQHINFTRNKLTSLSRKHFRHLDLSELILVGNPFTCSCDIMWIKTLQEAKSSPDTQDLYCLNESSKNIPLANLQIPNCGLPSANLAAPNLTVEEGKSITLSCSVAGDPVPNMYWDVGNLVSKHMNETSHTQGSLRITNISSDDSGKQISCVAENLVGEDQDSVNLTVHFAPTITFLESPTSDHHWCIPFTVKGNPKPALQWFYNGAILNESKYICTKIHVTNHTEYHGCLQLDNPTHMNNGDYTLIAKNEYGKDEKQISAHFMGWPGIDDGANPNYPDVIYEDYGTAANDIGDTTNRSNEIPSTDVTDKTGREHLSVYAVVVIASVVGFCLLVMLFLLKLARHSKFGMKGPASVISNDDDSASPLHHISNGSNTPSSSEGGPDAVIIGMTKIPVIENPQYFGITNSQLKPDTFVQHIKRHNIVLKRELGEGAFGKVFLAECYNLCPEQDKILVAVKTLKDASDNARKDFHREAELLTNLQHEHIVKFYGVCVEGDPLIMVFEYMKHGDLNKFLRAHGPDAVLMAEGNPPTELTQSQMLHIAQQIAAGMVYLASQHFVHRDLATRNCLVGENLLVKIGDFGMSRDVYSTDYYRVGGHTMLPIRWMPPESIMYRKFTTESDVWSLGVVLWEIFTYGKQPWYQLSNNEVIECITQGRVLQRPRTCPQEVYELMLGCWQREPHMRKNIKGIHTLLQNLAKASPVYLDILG", "UniProt Q16288, whole entry, looked up": "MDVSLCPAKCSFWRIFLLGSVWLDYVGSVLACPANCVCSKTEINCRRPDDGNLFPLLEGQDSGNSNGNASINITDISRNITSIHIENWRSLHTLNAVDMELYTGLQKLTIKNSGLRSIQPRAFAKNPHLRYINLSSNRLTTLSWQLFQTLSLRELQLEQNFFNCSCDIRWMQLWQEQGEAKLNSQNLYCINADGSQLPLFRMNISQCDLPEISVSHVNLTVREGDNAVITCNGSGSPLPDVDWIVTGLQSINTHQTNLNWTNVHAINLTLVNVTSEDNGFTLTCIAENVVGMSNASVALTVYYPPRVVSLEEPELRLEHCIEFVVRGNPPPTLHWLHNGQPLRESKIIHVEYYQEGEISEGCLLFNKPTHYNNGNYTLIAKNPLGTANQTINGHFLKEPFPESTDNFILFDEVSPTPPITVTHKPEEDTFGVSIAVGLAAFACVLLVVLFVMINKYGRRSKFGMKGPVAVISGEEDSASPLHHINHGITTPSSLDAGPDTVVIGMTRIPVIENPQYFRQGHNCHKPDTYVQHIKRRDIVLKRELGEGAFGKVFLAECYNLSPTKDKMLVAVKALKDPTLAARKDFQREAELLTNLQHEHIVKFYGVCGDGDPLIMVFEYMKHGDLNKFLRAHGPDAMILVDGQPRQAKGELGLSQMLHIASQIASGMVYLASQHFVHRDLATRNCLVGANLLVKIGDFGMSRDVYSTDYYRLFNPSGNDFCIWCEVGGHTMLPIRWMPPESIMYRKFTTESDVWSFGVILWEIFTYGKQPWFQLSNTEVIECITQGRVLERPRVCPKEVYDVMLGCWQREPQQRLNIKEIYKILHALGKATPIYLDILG", "UniProt P07333, whole entry": "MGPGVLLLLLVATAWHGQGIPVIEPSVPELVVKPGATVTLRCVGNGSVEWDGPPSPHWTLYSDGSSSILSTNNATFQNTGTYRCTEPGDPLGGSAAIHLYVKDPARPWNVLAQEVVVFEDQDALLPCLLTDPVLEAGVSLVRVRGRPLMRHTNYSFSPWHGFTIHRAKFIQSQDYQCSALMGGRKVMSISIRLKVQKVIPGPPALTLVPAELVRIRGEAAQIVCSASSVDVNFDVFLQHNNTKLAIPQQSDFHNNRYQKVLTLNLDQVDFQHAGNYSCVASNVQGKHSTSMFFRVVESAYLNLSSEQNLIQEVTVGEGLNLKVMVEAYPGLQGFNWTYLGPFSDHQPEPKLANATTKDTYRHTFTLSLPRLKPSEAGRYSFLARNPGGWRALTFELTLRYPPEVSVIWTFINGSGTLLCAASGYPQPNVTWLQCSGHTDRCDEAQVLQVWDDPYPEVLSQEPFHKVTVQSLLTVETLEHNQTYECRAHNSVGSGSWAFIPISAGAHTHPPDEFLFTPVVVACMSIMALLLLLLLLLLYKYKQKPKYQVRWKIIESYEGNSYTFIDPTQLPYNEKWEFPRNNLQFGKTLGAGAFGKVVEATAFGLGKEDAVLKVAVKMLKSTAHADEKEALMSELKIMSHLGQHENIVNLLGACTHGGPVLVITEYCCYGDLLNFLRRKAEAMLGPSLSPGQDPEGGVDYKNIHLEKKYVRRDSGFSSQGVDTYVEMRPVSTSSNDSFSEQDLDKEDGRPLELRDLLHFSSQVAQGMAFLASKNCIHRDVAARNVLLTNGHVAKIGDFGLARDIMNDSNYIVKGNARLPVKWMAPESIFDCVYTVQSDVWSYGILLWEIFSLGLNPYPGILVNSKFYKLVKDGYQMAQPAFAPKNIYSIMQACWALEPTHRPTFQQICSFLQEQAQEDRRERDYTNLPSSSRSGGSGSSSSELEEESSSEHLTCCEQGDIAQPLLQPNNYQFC"},
  "source": "ChEMBL document CHEMBL6182921",
  "about": "“Structural Optimization of Next-Generation TRK Inhibitors against Acquired Drug Resistance Mutations for the Treatment of Solid Tumors” (J Med Chem, 2025)",
  "conditions_in_all_cases": "dose 1.0 µmol/L, time 1.0 hrs",
  "key": {"[1]": {"target": "BDNF/NT-3 growth factors receptor (Homo sapiens) (UniProt Q16620)"}, "[2]": {"target": "NT-3 growth factor receptor (Homo sapiens) (UniProt Q16288)"}, "[3]": {"target": "Macrophage colony-stimulating factor 1 receptor (Homo sapiens) (UniProt P07333)"}},
  "data": [
    {"smiles": "CN1CCN(C(=O)c2cc3cc(NC(=O)c4cc(N5CCC[C@@H]5c5cc(F)ccc5F)c[nH]c4=O)ccc3o2)CC1", "values": [
      {"measurement": "inhibition", "setting": "[1]", "value": 99, "unit": "%"},
      {"measurement": "inhibition", "setting": "[2]", "value": 97, "unit": "%"},
      {"measurement": "inhibition", "setting": "[3]", "value": 103, "unit": "%"}
    ]}
  ]
}
